Rango-impB inh – Rango-importin beta binding inhibition; Rango CFP/YFP FRET sensor + importin beta, 45 min; Potency, µM (top dose mostly 92.2 µM); Q14974; AID 540263; actives 0.031% (n = 340,000); also: nearly all actives have a fitted effect of over 15% in size
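Inhibition scored from the CFP 486 nm/YFP 530 nm FRET ratio 45 min after adding 0.125 microM importin beta to 50 nM Rango biosensor preincubated 5 min with compound (room temperature, PBS with DTT, Tween-20, BSA). No-importin wells as positive control.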
gsp antagonist – gsp mutant antagonism. gsp-mutant cells, cAMP HTRF, 30 min. Potency, µM (highest dose often 76.9 µM), hits mostly inhibitors. actives 0.4% (n = 340,000); calls by dose curve; cell line not stated here;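 also: intracellular cAMP measured with PDE inhibitor Ro 20-1724 present during compound exposure; nearly all actives have a fitted effect of over 65% in size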
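Measurement of cellular cAMP by homogeneous time-resolved fluorescence following a 30 min compound exposure at 37C. The PDE inhibitor […] was present throughout; the assay buffer was DPBS with 0.05% BSA and 0.005% Tween 20.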
Rango release inh – inhibitors of RanGTP-induced Rango-importin beta complex dissociation. O95149+P62826. Biochemical FRET Rango-importin beta, RanGTP-induced dissociation. Potency, µM (titrated, usually from 46.1 µM). actives 0.071% (n = 340,000). AID 540253; also: nearly all actives have a fitted effect of over 45% in size
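Quantitative HTS using a FRET biosensor: 0.1 uM Rango, 0.25 uM importin beta, 0.6 uM Ran, 2 mM GTP, 0.2 uM RCC1 final, PBS with DTT, Tween-20 and BSA. Post-read taken 45 min after Ran addition.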
gsp ag – activates gsp, the McCune-Albright syndrome mutation. gsp mutant cells, cAMP HTRF, 30 min. Potency, µM (doses to about 76.9 µM), usual class: activators. actives 0.13% (n = 340,000). AID 624287; active = well fitted activation curve with a large enough effect; inconclusive = small, poorly fitted or top-dose-only effect, or another doubt; inactive = no such curve, though single readings can be large or run the other way; cell line not stated here;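 also: phosphodiesterase inhibitor Ro 20-1724 added with compounds to block cAMP breakdown; nearly all actives have a fitted effect of over 60% in size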
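Cells stably selected in G418 were plated at 2000/well, grown 16-24 hr, then given compounds in DMSO with the PDE inhibitor […] (300 uM solution added) for 30 min at 37C; cAMP was read by HTRF.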
A number is an active result; – = inactive; ? = inconclusive; · = no result; [ ] = dose if it differs, or a comment. An excerpt weighted towards active compounds, which were near 0.66% of everything screened. Unless noted, calls follow the shape of the full dose curve.

SMILES	Rango-impB inh	gsp antagonist	Rango release inh	gsp ag
CC(C)OC(=O)N(C)C[C@@H]1OCc2cnnn2CCCC(=O)N([C@@H](C)CO)C[C@H]1C	·	·	·	–
C[C@H]1CN([C@@H](C)CO)C(=O)c2cc(C3=CCCC3)cnc2O[C@@H]1CN(C)C(=O)c1ccncc1	·	·	·	–
COc1cc(/C=C/C(=O)OC(C)C(=O)Nc2c(C)n(C)n(-c3ccccc3)c2=O)ccc1O (stereo not drawn)	?	–	23µM	–[15.4 µM]
CN(C)S(=O)(=O)n1cc(/C=C(\NC(=O)c2ccccc2F)C(=O)N2CCCCC2)c2ccccc21	·	·	·	–
CCC(=O)N1CCN(c2ccnc3cc(Cl)ccc23)CC1	–	–	–	–[15.4 µM]
O=C(c1ccc(Cl)cc1)N1CCN(c2ccnc3cc(Cl)ccc23)CC1	–	40µM	–	–[15.4 µM]
O=C(Nc1ncc([N+](=O)[O-])s1)c1ccc2c(c1)OCO2	–	–	–	–
Cc1ccc(C(=O)Nc2ncc([N+](=O)[O-])s2)cc1	?	25µM	–	–
O=C(COc1ccc(Cl)cc1)Nc1ncc([N+](=O)[O-])s1	–	35µM	–	–[15.4 µM]
O=C(OCc1cn([C@@H]2CN(Cc3cccs3)[C@@H](c3ccc(Cl)cc3)C[C@H]2O)nn1)c1ccccc1	·	·	·	–
CC1=NN(c2cccc(C(=O)O)c2)C(=O)/C1=C\C=C/c1ccccc1	–	28µM	–	–[15.4 µM]
CC1=NN(c2ccc(C)cc2)C(=O)/C1=C\C=C\c1ccccc1	–	–	–	–[15.4 µM]
CC(=O)n1cc([C@H]2C=C(C(=O)N3CCN(Cc4ccccc4)CC3)O[C@@H](OCCCCO)C2)c2ccccc21	?	35µM	–	·
COc1ccc(Cl)cc1S(=O)(=O)NC(C)c1cnn(-c2ccccn2)c1C (stereo not drawn)	·	·	·	–
Cn1c(/C=N/Nc2nc3ccccc3[nH]2)nc2ccccc21	–	–	–	–
Cc1c(/C=N/Nc2nc3ccccc3[nH]2)c2ccccc2n1C	–	40µM	–	–[15.4 µM]
CC(C)(C)Cc1c(-c2ccccc2)nc2ccc(Cl)cn12	·	·	·	–
CCn1c(=O)c([N+](=O)[O-])c(NCCc2ccccc2)c2ccccc21	–	40µM	–	–
COc1ccccc1CN(C)C[C@@H]1OCc2cnnn2CCCC(=O)N([C@@H](C)CO)C[C@H]1C	·	·	·	–
CC(=O)N1CCN(c2ccc(Nc3ncnc4c3oc3ccccc34)cc2)CC1	–	28µM	–	–
Cc1cc(C)c2c(=O)n3c(nc2c1)C(CC(C)C)NC(=O)c1cccnc1-3 (stereo not drawn)	·	·	·	–
COc1cccc(NC(=O)c2cnc(NS(=O)(=O)c3ccccc3)nc2)c1	·	·	·	–
Cc1ccc(CN(C)CC(=O)NC(C)c2ccccc2)cc1 (stereo not drawn)	–	–	–	?
CC(NC(=O)CN(C)Cc1cccc(Cl)c1)c1ccccc1 (stereo not drawn)	–	11µM	–	–[15.4 µM]
O=C(NNC(=S)NC1CCCCC1)c1sc2ccccc2c1Cl	–	?	–	–
SMILES	Rango-impB inh	gsp antagonist	Rango release inh	gsp ag
CC(C)(C)C(=O)NC(=S)NNC(=O)c1sc2ccccc2c1Cl	–	50µM	–	–
CCN(CC(=O)Nc1ccccc1C(F)(F)F)CC(=O)c1[nH]c(C)c(C(C)=O)c1C	·	·	·	–
O=C(Nc1ccc([N+](=O)[O-])cc1Cl)c1cccc([N+](=O)[O-])c1	·	·	·	–
O=C(Nc1ccc([N+](=O)[O-])cc1Cl)c1cc(Cl)ccc1O	–	2µM	–	·
CCCn1c(N)c(C(=O)COC(=O)c2c(C)noc2C)c(=O)n(C)c1=O	–	–	–	5µM
CN1Cc2c(N3CCOCC3)nc(SCc3ccccc3)c(C#N)c2CC1(C)C	?	–	8.2µM	–
Cc1ccccc1C(=O)N1CCC(C(=O)Nc2ccc(S(=O)(=O)N3C(C)CCCC3C)cc2)CC1 (stereo not drawn)	–	–	–	–
Cc1ccc(S(=O)(=O)N2CCOCC2)cc1NC(=O)COc1ccc(C(=O)c2ccccc2)cc1	–	25µM	?	7.9µM
Nc1ccn(C2OC(COC(=O)C34CC5CC(CC(C5)C3)C4)C(O)C2O)c(=O)n1 (stereo not drawn)	–	–	–	–
O=C(CN1CCN(S(=O)(=O)c2ccccc2C(F)(F)F)CC1)NCc1cccs1	–	–	–	–[15.4 µM]
NC(=O)c1ccsc1NC(=O)CN1CCN(S(=O)(=O)c2ccccc2C(F)(F)F)CC1	–	50µM	–	–
CCCCC(CC)CO (stereo not drawn)	–	–	–	·
CCCCC(CC)CN=C(N)NC(N)=NCCCCCCN=C(N)NC(N)=NCC(CC)CCCC (stereo not drawn)	58µM	?	?	·
Cc1cc(C)c(Nc2cc(S(=O)(=O)O)c(N)c3c2C(=O)c2ccccc2C3=O)c(C)c1	–	28µM	–	–
COc1cc2[nH]c(=S)nc(NCCc3ccc(S(N)(=O)=O)cc3)c2cc1OC	–	–	–	13µM
COc1cc2[nH]c(=S)nc(NCCc3ccc(C)cc3)c2cc1OC	–	–	–	–
COc1ccc(S(=O)(=O)NCCSCc2cccs2)cc1	–	32µM	–	–
COc1ccc(S(=O)(=O)NCCSCc2ccco2)cc1	–	–	–	–
O=C(COC(=O)c1ccc(F)cc1Cl)NC1CC1	·	·	·	–
COc1cc(C2C(C#N)=C(N)Oc3cc(N)ccc32)cc(OC)c1OC (stereo not drawn)	?	–[15.4 µM]	?	–
COc1cc(C2C(C#N)=C(C)NC(C)=C2C#N)cc(OC)c1OC	–	–	–	8.9µM
COc1cc(NC(=O)CCN2CCN(c3ccccc3OC)CC2)cc(OC)c1	·	·	·	–
O=C(NCC1CC1)c1ccc(Oc2cc(Cl)cc(Cl)c2)o1	–	–	–	?
O=C(NCCN1CCCCC1)c1ccc(Oc2cc(Cl)cc(Cl)c2)o1	–	–	16µM	–[15.4 µM]
COc1ccc(-c2onc(C)c2-c2cscn2)c(O)c1	–	·	–	–[15.4 µM]
SMILES	Rango-impB inh	gsp antagonist	Rango release inh	gsp ag
CCCOC(=O)c1ccc(-c2c(C)noc2-c2ccc(OC)cc2O)o1	–	32µM	?	–
Cc1cc2c(c(=O)o1)C1(C(=O)N(CC(=O)O)c3ccccc31)C(C#N)=C(N)O2 (stereo not drawn)	?	–	15µM[inhibitor]	–
CCN1C(=O)C2(C(C#N)=C(N)Oc3cc(C)oc(=O)c32)c2ccccc21 (stereo not drawn)	–	–	–	?
CCOC(=O)COc1cc(-n2c(=S)[nH]c3cc(OC)c(OC)cc3c2=O)c(Cl)cc1Cl	–	13µM	–	–[15.4 µM]
C[C@H]1CCCCO[C@@H](CN(C)C(=O)NC2CCCCC2)[C@@H](C)CN([C@@H](C)CO)C(=O)c2cc(NC(=O)Cc3ccccc3)ccc2O1	·	·	·	–
CCOC(=O)c1c(-c2ccc(F)cc2)csc1NC(=O)C1CC=CCC1C(=O)O (stereo not drawn)	–	–	–	–
COC(=O)c1c(-c2ccco2)csc1NC(=O)C1CC=CCC1C(=O)O (stereo not drawn)	–	–	–	32µM
CC1=NOC(=O)/C1=C\c1ccc(-c2ccccc2Br)o1	?	–	–	16µM
O=C1NC(=S)NC1=Cc1ccc(O)cc1	?	–	–	–

Screening data (PubChem)
